Chains of the proteins cited; added tags and fusions are not shown. Residues count along the entry.
UniProt P05106, 27-788 limits assumed: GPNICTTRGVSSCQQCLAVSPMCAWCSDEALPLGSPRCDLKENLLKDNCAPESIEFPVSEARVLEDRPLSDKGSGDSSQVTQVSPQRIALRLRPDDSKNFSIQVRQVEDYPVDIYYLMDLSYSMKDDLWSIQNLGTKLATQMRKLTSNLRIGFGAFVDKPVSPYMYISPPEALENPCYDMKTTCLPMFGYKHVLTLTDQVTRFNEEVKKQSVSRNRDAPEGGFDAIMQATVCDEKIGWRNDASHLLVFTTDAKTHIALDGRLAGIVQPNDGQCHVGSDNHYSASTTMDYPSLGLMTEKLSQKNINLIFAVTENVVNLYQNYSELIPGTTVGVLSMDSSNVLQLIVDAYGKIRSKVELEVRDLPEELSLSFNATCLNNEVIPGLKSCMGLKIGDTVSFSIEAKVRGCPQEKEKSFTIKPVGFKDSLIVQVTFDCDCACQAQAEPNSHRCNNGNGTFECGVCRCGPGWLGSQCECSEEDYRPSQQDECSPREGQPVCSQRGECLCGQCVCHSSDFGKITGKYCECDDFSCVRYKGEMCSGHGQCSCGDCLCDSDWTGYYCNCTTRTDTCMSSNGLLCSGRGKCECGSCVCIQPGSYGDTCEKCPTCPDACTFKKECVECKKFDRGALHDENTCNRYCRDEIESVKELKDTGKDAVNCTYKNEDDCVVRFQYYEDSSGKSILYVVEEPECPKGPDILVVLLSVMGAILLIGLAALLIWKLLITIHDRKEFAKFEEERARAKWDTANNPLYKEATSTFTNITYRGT
UniProt P08514, 32-887 limits assumed: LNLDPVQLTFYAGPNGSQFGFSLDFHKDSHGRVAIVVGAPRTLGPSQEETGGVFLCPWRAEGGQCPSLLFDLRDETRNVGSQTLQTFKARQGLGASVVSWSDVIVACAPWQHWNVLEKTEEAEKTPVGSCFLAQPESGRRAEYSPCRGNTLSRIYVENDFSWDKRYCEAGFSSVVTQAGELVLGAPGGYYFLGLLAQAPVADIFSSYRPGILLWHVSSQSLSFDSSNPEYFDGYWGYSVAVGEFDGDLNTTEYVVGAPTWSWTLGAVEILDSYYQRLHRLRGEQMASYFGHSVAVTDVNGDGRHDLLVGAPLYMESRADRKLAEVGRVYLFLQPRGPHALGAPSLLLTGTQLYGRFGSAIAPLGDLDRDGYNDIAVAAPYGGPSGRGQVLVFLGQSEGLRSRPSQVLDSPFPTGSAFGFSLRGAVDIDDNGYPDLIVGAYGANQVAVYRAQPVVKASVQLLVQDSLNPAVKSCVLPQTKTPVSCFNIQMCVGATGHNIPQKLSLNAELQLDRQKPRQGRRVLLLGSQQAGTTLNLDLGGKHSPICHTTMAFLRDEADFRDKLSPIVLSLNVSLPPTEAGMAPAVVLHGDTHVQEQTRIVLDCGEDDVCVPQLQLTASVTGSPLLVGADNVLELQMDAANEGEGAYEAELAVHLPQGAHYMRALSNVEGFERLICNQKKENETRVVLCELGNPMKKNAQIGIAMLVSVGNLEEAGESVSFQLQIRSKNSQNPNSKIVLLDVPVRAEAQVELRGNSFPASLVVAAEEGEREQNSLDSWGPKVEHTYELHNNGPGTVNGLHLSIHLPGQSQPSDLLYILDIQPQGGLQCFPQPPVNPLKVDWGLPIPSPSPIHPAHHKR
UniProt P08514, 891-1039 partner limits assumed: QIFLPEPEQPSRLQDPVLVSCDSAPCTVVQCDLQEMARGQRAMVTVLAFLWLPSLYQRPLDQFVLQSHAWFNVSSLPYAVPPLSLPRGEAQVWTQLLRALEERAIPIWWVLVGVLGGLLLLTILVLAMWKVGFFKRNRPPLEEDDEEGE
UniProt P06756, 31-889 limits assumed: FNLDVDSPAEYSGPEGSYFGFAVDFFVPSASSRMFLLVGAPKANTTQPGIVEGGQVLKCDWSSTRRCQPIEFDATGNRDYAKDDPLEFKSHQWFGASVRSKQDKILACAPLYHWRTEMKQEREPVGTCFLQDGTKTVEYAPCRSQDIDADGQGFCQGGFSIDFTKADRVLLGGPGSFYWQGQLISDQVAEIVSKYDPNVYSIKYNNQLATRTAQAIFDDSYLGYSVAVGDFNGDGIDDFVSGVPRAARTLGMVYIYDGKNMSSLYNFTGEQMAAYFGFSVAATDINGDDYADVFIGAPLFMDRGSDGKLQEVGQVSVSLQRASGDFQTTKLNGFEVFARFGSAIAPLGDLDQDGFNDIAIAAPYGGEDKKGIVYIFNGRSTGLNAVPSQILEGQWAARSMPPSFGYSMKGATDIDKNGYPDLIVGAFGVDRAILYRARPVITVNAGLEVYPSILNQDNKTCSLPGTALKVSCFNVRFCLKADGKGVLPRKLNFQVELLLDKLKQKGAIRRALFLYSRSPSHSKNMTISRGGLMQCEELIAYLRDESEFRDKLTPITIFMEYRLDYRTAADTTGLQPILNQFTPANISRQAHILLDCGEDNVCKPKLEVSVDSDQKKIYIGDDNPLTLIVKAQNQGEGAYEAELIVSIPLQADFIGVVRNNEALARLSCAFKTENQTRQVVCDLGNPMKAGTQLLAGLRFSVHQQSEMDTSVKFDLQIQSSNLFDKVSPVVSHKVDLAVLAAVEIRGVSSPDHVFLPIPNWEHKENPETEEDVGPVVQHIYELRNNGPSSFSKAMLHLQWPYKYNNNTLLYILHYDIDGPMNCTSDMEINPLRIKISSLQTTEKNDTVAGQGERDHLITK
UniProt P06756, 891-1048 partner limits assumed: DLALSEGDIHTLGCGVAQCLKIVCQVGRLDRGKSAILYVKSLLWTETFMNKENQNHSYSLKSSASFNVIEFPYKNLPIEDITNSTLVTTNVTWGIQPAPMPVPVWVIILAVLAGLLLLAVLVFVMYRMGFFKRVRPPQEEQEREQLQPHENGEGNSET

According to patent US7081460B2, “Quinazoline and quinazoline-like compounds for the treatment of integrin-mediated disorders” (Ortho-McNeil Pharmaceutical, Inc., priority 2001, dated 2006):

How the values were obtained:
[1] = target: GPIIb/IIIa (Homo sapiens, UniProt P05106+P08514); test: In vitro solid phase purified glycoprotein IIb/IIIa binding assay (biotinylated fibrinogen); details: read-out: GPIIb/IIIa Binding IC50, RGD-affinity purified GPIIb/IIIa, tested form: Na salt
[2] = target: Human αvβ3 (Homo sapiens, UniProt P05106+P06756); test: In vitro solid phase purified αvβ3 binding assay (vitronectin/αvβ3); details: read-out: αvβ3 Binding IC50; isolated human αvβ3, 5 nM vitronectin; tested form: Na salt

IC50 [1]: 29 nM
IC50 [2]: 3.4 nM
Structure (SMILES): Cc1c(C)c(C)c(S(=O)(=O)N[C@@H](Cc2nc3ccc(/C=C/CNC4=NCCN4)cc3c(=O)[nH]2)C(=O)O)c(C)c1C
